# Assay results: paper PMC8861141 (Cell Discovery, 2022)
# B1: p97 D1D2 fragment (residues 210–806) (domain or fragment)
# chain: not shown
# notes: human p97, D1 and D2 domains with the C-terminal extension, residues 210-806; source: E. coli BL21 (DE3), purified
# Biological target: the molecule itself
# Assay: SEC-MALS; ND1 and D1D2 fragments of p97 with or without different nucleotides (Supplementary Fig. S9a, b)
protein,measurement,value
B1,binding result,binds
